{"source": "patent US20050049231A1", "about": "“Treatment method” (priority 2001, published 2005)", "settings": "baboons with induced endometriosis", "data": [{"smiles": "CCC1(c2ccc(N)cc2)CCC(=O)NC1=O", "note": "(centres unmarked) [C14-labelled aminoglutethimide, “D,L”-3-“4-Aminophenyl”-3-ethyl-2,6-piperidinedione[Phenyl-14C“U”]]", "values": [{"measurement": "blood levels of radioactivity", "setting": "intra-vaginal doses of 0.3, 0.6 and 0.9 mCi in DMSO/glycerol, systemic blood samples at time intervals", "value": "≤ 2", "unit": "c.p.m. per microgram"}, {"measurement": "transfer from vagina to endometrial lesions (radioactive counts in lesion biopsies, FIG. 3)", "setting": "intra-vaginal doses of 0.3, 0.6 and 0.9 mCi, biopsies at three hours", "value": "transfer of aromatase inhibitor from vagina to endometrial lesions"}]}]}
